Binding of CDR-mutated scFvs to a peptide of the spike HR2 region

Binding partner: SARS-CoV-2 spike HR2 peptide, sequence PDVDLGDISGINAS.

Parent: Ab-95, a human scFv built as VH, a 15-residue (Gly4Ser)3 linker, VL. Only the CDRs of the light chain vary.
VH: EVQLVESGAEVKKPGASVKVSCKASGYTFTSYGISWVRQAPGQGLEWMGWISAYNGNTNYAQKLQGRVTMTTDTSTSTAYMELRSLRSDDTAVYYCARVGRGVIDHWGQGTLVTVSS
VL: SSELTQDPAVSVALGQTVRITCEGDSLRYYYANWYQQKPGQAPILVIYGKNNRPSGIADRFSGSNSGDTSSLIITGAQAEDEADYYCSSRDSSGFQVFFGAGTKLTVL

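The parent was found by panning a naive human phage display library on the peptide. The library (AAYL52) carries one to three amino acid substitutions per variant, with no insertions or deletions. In AlphaSeq, yeast of one mating type display the scFv and yeast of the other type display the target. Pairs that bind mate more often; barcode pairs of the diploids are counted by sequencing. Read counts were normalised to the haploid input and turned into Kd by a linear fit to BCL2-family pairs of known affinity, for each replicate. Each pool was mated in three replicate cultures.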

The parent's light chain CDRs are EGDSLRYYYAN, GKNNRPS, SSRDSSGFQVF; each variant's own CDRs replace them letter for letter.
The read-out is the apparent dissociation constant on a log10 scale (nM): the lower, the stronger.
"n.d." means that the variant was in the library but no mating with the target was seen in that replicate; the authors take this as a sign of poor binding, and no number exists.
Empty control strains, which show no peptide, gave a signal in 28% of pairings with library AAYL52; the median was 3.91 and 95% of these signals were weaker than 2.90. No background was subtracted. Also given: how often the same scFv was detected with the empty control strains, with their mean in brackets.

| # | CDR-L1 | CDR-L2 | CDR-L3 | replicates, log10 nM | control signals |
|---|---|---|---|---|---|
| 1 | EGDSLRYYAAN | GKNNRPS | DSRDSSGFQVF | 3.43 n.d. n.d. | 0/9 |
| 2 | EGDHLCYYYAN | GKNNRPS | SSRSSSGFQVF | 4.40 4.19 3.88 | 4/9 (4.04) |
| 3 | EGDSLRYYYYN | GKNNRPS | SSRDSEGFQVH | 4.72 n.d. n.d. | 0/9 |
| 4 | ETDSLRYYYAN | GKINRPS | SSYDSSGFQVF | 5.36 n.d. n.d. | 3/9 (4.23) |
| 5 | EGISLRYYYAN | GKNNRCS | SSRDSSGFQVF | 3.26 3.96 2.56 | 1/9 (4.86) |
| 6 | EGDSLRYYYAP | GKNNRPS | QSGDSSGFQVF | 3.96 5.56 n.d. | 4/9 (3.64) |
| 7 | EFDSLCYYYAN | GKNVRPS | SSRDSSGFQVF | 2.59 4.31 4.25 | 0/9 |
| 8 | EGDSLRYYYIN | GKNMRPS | SSRDSSTFQVF | 4.48 5.15 n.d. | 3/9 (3.91) |
| 9 | EGDSLRYKYAN | GKNNRPY | SSWDSSGFQVF | 1.63 1.53 0.61 | 1/9 (3.25) |
| 10 | EGDSLRYYWAN | IKNNRPS | SSRDSSGSQVF | n.d. 4.52 n.d. | 5/9 (3.87) |
| 11 | EGDSLRYYYAN | GRNNRIS | SSRDSSGFQVC | 4.26 4.77 3.32 | 3/9 (4.00) |
| 12 | EGDSHRYYYAN | GKNNRPS | SSLDSSGFQGF | n.d. n.d. n.d. | 0/9 |
| 13 | EGDSDRYYYAN | GYNNRPS | SSRDSSGEQVF | n.d. n.d. n.d. | 0/9 |
| 14 | EGDSLRRYYAF | GKNNRPD | SSRDSSGFQVF | 2.03 2.18 1.77 | 3/9 (3.40) |
| 15 | DGDSLRYYYAN | GKNNRPS | SSRDSGGFQMF | 4.10 4.13 n.d. | 1/9 (3.76) |
| 16 | EGDSLRYYEAN | GKNNRPQ | SSWDSSGFQVF | 2.94 4.60 3.22 | 0/9 |
| 17 | EGHSLRYYYAN | GKNNCPS | SSRDSSGFAVF | n.d. n.d. 3.51 | 2/9 (3.94) |
| 18 | EGDSLRYYYAN | GKNNRPS | SSRESSLFQAF | 4.26 3.44 n.d. | 2/9 (4.01) |
| 19 | EGDSSRYYYAN | GKNNRPS | FSRDSSGFQVY | 3.76 n.d. 3.10 | 4/9 (4.73) |
| 20 | EGDSLRYYYAE | GKNNRPS | SSRDSSGFQVM | n.d. n.d. n.d. | 0/9 |
| 21 | EPDSLRYYSAN | GKNNCPS | SSRDSSGFQVF | n.d. n.d. n.d. | 2/9 (4.32) |
| 22 | EGDSYRYNYAN | GKNNRPS | SSRISSGFQVF | 1.85 2.05 1.83 | 3/9 (4.18) |
| 23 | EGDQLRYYYAN | FKNNRPS | SSRDPSGFQVF | n.d. 5.68 2.74 | 5/9 (3.99) |
| 24 | EFDSLRYYYAN | GPNNRPS | SSRDSSGFQVP | 3.02 4.21 2.71 | 2/9 (4.00) |
| 25 | EGDSLRYYYAN | GKGNRPS | SSRDSSGIQHF | n.d. 3.10 3.12 | 5/9 (4.20) |
| 26 | EGDSLRYYYAN | GQNMRPS | SSRDSSGFQVF | 1.98 1.92 1.53 | 4/9 (4.06) |
| 27 | EGDSLRYYYVN | GKNNRPS | SSRRSSGFQVF | 4.24 3.04 3.53 | 2/9 (4.04) |
| 28 | MGDSLRYYYAN | GKNERPS | LSRDSSGFQVF | 4.00 n.d. n.d. | 3/9 (3.63) |
| 29 | EGDSLGYYYAN | GKNNGPS | SSRDSSGFQVF | 3.13 2.94 n.d. | 0/9 |
| 30 | RGDSTRYYYAP | GKNNRPS | SSRDSSGFQVF | 2.31 5.54 4.06 | 2/9 (3.70) |
| 31 | EGRSLRYYYVR | GKNNRPS | SSRDSSGFQVF | 2.84 3.34 3.35 | 2/9 (4.35) |
| 32 | EGDSLRYYNAN | GKNNRPS | SSRDLSGPQVF | 2.10 1.65 1.36 | 3/9 (3.18) |
| 33 | ELDCLRYYYAK | GKNNRPS | SSRDSSGFQVF | 3.89 3.87 n.d. | 4/9 (3.67) |
| 34 | EGDSLRYYYAW | GQNNRPS | SSRQSSGFQVF | 4.39 n.d. n.d. | 4/9 (3.90) |
| 35 | EGWSLRYYYAN | GSNNRPS | SSWDSSGFQVF | 2.90 3.87 1.96 | 2/9 (2.73) |
| 36 | EGDSLRYYYAN | GKNNLPS | SSRDSSCFQVF | 3.06 n.d. n.d. | 0/9 |
| 37 | EGRSLRYYYAN | GKHNRPS | SSRDSLGFQVF | 3.46 2.97 3.06 | 2/9 (3.67) |
| 38 | EGDSLRYYYAH | GKNNRCS | SSRDSSGFQQF | n.d. n.d. n.d. | 1/9 (3.69) |
| 39 | EGDSLRYYYAN | GKNNRPS | SGRVSSGFQGF | 4.28 2.61 2.74 | 2/9 (3.99) |
| 40 | AGDSLRYYYAN | GTNNRLS | SSRDSSGFQVF | 2.52 3.26 2.12 | 4/9 (3.85) |
| 41 | EGDSLRYEYAN | GKNWRPS | SSRDSSGFQCF | 1.87 1.86 1.50 | 2/9 (3.85) |
| 42 | EGDSLRYYYAN | GKNNRPS | KSRDSSGYQVS | 2.44 2.36 3.95 | 2/9 (3.44) |
| 43 | MGDSLRYYYAN | GKNNRPQ | SSRDSSGFQSF | 2.78 3.76 3.46 | 4/9 (4.15) |
| 44 | EGDSLRYTYAN | GKNNRPY | SSRCSSGFQVF | 1.63 1.67 1.71 | 6/9 (3.80) |
| 45 | EGDSLDYYYAN | GGNNRLS | SSRDSSGFQVF | 3.59 2.93 2.32 | 2/9 (3.76) |
| 46 | EGDSLRYKYAN | GKNNRPS | SSRDSFFFQVF | 1.87 1.80 1.59 | 4/9 (4.39) |
| 47 | EGFSLRYYYAN | GKNTRPS | SSRDSSGFQYF | 3.97 n.d. 2.29 | 5/9 (3.99) |
| 48 | EGDSLRYGYAN | GKNNRIS | SSRDSKGFQVF | 1.15 1.14 0.57 | 1/9 (3.29) |

Extract of 8 entries:

CDR-L1,CDR-L2,CDR-L3,"replicates, log10 nM",control signals
EGDSLRYYYAP,GKNNRPS,QSGDSSGFQVF,3.96 5.56 n.d.,4/9 (3.64)
EGDSLRYYYAW,GQNNRPS,SSRQSSGFQVF,4.39 n.d. n.d.,4/9 (3.90)
DGDSLRYYYAN,GKNNRPS,SSRDSGGFQMF,4.10 4.13 n.d.,1/9 (3.76)
EGDSSRYYYAN,GKNNRPS,FSRDSSGFQVY,3.76 n.d. 3.10,4/9 (4.73)
EGDSLRYGYAN,GKNNRIS,SSRDSKGFQVF,1.15 1.14 0.57,1/9 (3.29)
EGDSYRYNYAN,GKNNRPS,SSRISSGFQVF,1.85 2.05 1.83,3/9 (4.18)
EGDSLRYYNAN,GKNNRPS,SSRDLSGPQVF,2.10 1.65 1.36,3/9 (3.18)
EGDSLRYEYAN,GKNWRPS,SSRDSSGFQCF,1.87 1.86 1.50,2/9 (3.85)

Data: MIT Lincoln Laboratory AlphaSeq set, Engelhart et al. 2022, doi:10.1038/s41597-022-01779-4, as distributed in FLAb.